Legend:
[1] = target: Recombinant STAT3 protein (STAT3(G127-I722)) (Homo sapiens, UniProt P40763); assay: STAT3 Fluorescence Polarization (FP) Assay; details: read-out: STAT3 (FP assay IC50); STAT3(G127-I722) 25 nM, probe 5-FAM-GpYLPQTV-NH2 2 nM, 45-minute incubation
Description: STAT3 Fluorescence Polarization (FP) Assay
An FP assay was developed to determine IC50 values for test substances. Recombinant STAT3 protein (STAT3(G127-I722)) at 25 nM was combined with a fluorescently labeled, phosphotyrosine peptide probe (5-FAM-GpYLPQTV-NH2) at 2 nM in FP buffer (10 mM HEPES pH 7.4, 50 mM NaCl, 1 mM EDTA, 0.05% Tween 20, 2 mM DTT). 50 μL of STAT3-probe mixture was added to serial diluted compounds in black, 96-well plates (Greiner BioOne 655076) to a final concentration of 1% DMSO. Reaction components were mixed, and FP was measured after 45-minute incubation at room temperature using a Tecan Spark multimode plate reader. FP signal (mP) was plotted against the log concentration of the test substances and IC50 values were calculated by nonlinear regression analysis using GraphPad Prism software. For STAT3 FP assay, A=≤100 nM; B=>100-1000 nM; C=>1-10 μM; and D=>10 μM.

Sequences of proteins named here, by UniProt entry; tags and fusion partners are left off. Residues count along the entry.
UniProt P40763, 127-722 limits assumed: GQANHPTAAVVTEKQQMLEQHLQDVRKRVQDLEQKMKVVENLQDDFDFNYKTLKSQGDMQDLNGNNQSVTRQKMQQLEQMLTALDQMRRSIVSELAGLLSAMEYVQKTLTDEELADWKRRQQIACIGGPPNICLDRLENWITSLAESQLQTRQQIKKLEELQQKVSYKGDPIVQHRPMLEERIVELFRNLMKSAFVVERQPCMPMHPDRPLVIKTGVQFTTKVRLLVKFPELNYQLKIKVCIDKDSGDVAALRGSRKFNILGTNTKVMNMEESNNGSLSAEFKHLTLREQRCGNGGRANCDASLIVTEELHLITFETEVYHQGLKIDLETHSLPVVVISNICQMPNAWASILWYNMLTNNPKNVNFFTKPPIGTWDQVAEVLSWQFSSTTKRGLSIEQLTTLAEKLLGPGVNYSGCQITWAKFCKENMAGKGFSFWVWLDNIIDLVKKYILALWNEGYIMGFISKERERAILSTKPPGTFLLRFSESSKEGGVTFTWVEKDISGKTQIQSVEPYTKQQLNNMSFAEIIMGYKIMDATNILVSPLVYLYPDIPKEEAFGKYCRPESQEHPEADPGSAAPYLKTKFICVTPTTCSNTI
UniProt P42226, 123-658 limits assumed: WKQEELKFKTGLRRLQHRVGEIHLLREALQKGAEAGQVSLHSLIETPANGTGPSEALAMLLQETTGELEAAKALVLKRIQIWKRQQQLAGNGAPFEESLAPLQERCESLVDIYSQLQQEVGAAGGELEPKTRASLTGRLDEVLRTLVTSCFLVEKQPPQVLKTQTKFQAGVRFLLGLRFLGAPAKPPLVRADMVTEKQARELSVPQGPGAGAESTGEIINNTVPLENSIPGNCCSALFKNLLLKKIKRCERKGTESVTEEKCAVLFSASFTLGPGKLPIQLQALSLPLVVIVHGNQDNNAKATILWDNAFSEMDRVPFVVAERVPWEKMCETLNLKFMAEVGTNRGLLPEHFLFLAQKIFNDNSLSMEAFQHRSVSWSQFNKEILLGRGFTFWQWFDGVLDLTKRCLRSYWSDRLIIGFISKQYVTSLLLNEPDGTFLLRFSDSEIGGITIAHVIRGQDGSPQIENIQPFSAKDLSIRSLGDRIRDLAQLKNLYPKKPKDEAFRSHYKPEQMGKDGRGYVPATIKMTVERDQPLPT

[2] = target: Recombinant STAT6 protein (STAT6(W123-T658)) (Homo sapiens, UniProt P42226); assay: STAT6 Fluorescence Polarization (FP) Assay; details: read-out: STAT6 (FP assay IC50); STAT6(W123-T658) 250 nM, probe 5-FAM-ApYKPFQDLI-NH2 2 nM, 45-minute incubation
Description: STAT6 Fluorescence Polarization (FP) Assay
An FP assay was developed to determine IC50 values for test substances. Recombinant STAT6 protein (STAT6(W123-T658)) at 250 nM was combined with a fluorescently labeled, phosphotyrosine peptide probe (5-FAM-ApYKPFQDLI-NH2) at 2 nM in FP buffer (10 mM HEPES pH 7.4, 50 mM NaCl, 1 mM EDTA, 0.05% Tween 20, 2 mM DTT). 50 μL of STAT6-probe mixture was added to serial diluted compounds in black, 96-well plates (Greiner BioOne 655076) to a final concentration of 1% DMSO. Reaction components were mixed, and FP was measured after 45-minute incubation at room temperature using a Tecan Spark multimode plate reader. FP signal (mP) was plotted against the log concentration of the test substances and IC50 values were calculated by nonlinear regression analysis using GraphPad Prism software. For STAT6 FP assay, A=≤300 nM; B=>300-3000 nM; C=>3-30 μM; and D=>30 μM.

| SMILES | IC50 [1] [µM] | IC50 [2] [µM] |
| --- | --- | --- |
| C[C@@]12C[C@H]3CC[C@@H](C(=O)N4CC(c5cccnc5)C4)N3C(=O)[C@@H](NC(=O)c3cc4cc(CP(=O)(O)O)ccc4s3)C[C@@H]1C2 | 0.1 to 1 | > 30 |
| O=C(N[C@H]1C[C@H]2C[C@H]2C[C@H]2CC[C@@H](C(=O)N3CC(c4cccnc4)C3)N2C1=O)c1cc2cc(C(F)(F)P(=O)(O)O)ccc2s1 | < 0.1 | 3 to 30 |

— US20250215030A1, “STAT MODULATORS AND USES THEREOF” (Recludix Pharma, Inc., priority 2022, published 2025)
